The assay concerns the target α-synuclein fibrils (Homo sapiens (Human), UniProt P37840). Kind of assay: Thioflavin T fluorescence competitive assay. To be noted: read-out: Thioflavin T assay Ki; competition with ThT on recombinant α-synuclein fibrils; at least three experiments.

This note sets out measurements from patent US12012394B2, “Alpha-synuclein ligands” (Washington University, priority 2018, dated 2024).

For `COc1ccc2nc(-c3noc(-c4cccnc4)n3)ccc2c1`, the Ki is above 1000 nM.
